From PMC2409900, “Pharmacokinetics of the nonsteroidal steroid sulphatase inhibitor 667 COUMATE and its sequestration into red blood cells in rats” (British Journal of Cancer, 2004)

Assay: Pharmacokinetic study: plasma levels after single i.v. or p.o. dose
Details: rat, no conversion to 667 COUMARIN or other metabolites detected

For NS(=O)(=O)Oc1ccc2c3c(c(=O)oc2c1)CCCCC3 [667 COUMATE, 6-oxo-8,9,10,11-tetrahydro-7H-cyclohepta-[c] [1] benzopyran-3-O-sulphamate], the “resistance to metabolism in vivo” value was “relatively resistant to metabolism”.
